According to patent US6140509A (dated 2000):

Columns and labels:
[1] = system: 5HT2A receptors (cerebral cortex); experiment: I125-LSD displacement from brain sections, cortex (autoradiography); type: binding, Sprague-Dawley rats; conditions: 1 micromolar compound, 1 nanomolar I125-LSD, 30 minutes, room temperature
[2] = system: dopamine D2 receptors (caudate nucleus); experiment: I125-LSD displacement from brain sections, caudate nucleus (autoradiography); type: binding, Sprague-Dawley rats; conditions: 1 micromolar compound, 1 nanomolar I125-LSD, 30 minutes, room temperature

O=C(CCCN1CCC2(CC1)C(=O)NCN2c1ccccc1)c1ccc(F)cc1 [spiperone] was tested, and the “displacement of I125-LSD from cortex (5HT2A)” value [1] was “displaces the I^125 -LSD from these receptors on both the cortex and the caudate” and the “displacement of I125-LSD from caudate (dopamine D2)” value [2] was “displaces the I^125 -LSD from these receptors on both the cortex and the caudate”.
